Laboratory results published in paper PMC4601051, “Discovery of Indoline-2-carboxamide Derivatives as a New Class of Brain-Penetrant Inhibitors of Trypanosoma brucei” (Journal of Medicinal Chemistry, 2015).

Tested on: MRC-5 cells
Settings: Table 7

CNC(=O)[C@H]1Cc2ccccc2N1C(=O)COc1ccc(Cl)cc1 [Compound 27, (R)-1-(2-(4-Chlorophenoxy)acetyl)-N-methylindoline-2-carboxamide]
selectivity vs MRC-5: >1800

CNC(=O)C1Cc2ccccc2N1C(=O)COc1ccc(F)cc1 (centres unmarked) [Compound 35, 1-(2-(4-fluorophenoxy)acetyl)-N-methylindoline-2-carboxamide]
selectivity vs MRC-5: >2700

CNC(=O)C1Cc2cc(F)ccc2N1C(=O)COc1ccc(F)cc1 (centres unmarked) [Compound 55, 5-fluoro-1-(2-(4-fluorophenoxy)acetyl)-N-methylindoline-2-carboxamide]
selectivity vs MRC-5: >720

CNC(=O)[C@H]1Cc2ccccc2N1C(=O)Cc1ccc(F)cc1 [Compound 47, (R)-1-(2-(4-Fluorophenyl)acetyl)-N-methylindoline-2-carboxamide]
selectivity vs MRC-5: >860

CNC(=O)C1Cc2ccccc2N1C(=O)COc1ccc(Cl)cc1 (centres unmarked) [Compound 1, 1-(2-(4-chlorophenoxy)acetyl)-N-methylindoline-2-carboxamide]
selectivity vs MRC-5: >1800
